pIC50: −log10 of the molar value.

Chains of the proteins cited; added tags and fusions are not shown. Residues count along the entry.
UniProt O75417, 1780-2590: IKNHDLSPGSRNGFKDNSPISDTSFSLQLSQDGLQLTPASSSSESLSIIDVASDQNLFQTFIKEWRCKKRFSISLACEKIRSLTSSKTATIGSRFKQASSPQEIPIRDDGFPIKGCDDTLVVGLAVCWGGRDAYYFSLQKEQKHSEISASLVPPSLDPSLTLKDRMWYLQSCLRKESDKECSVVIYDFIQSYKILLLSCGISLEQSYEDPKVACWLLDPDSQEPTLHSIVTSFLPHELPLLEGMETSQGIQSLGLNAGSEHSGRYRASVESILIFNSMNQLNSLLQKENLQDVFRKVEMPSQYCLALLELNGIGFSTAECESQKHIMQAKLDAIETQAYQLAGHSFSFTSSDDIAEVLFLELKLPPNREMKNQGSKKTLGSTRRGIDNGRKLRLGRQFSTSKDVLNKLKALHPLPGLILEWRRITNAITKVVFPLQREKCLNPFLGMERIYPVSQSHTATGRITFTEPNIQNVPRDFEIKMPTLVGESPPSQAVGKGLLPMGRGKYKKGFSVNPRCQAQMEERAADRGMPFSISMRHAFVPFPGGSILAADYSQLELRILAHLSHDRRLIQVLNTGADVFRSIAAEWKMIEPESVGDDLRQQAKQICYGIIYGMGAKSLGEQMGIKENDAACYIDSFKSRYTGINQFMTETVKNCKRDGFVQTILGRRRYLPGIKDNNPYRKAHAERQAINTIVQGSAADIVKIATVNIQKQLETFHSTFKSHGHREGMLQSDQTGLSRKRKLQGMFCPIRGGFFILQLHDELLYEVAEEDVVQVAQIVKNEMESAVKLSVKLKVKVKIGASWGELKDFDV

For orientation: pIC50 means the negative decadic logarithm of the IC50, by convention in mol/L. Read a low pIC50 as a large IC50.

This experiment addresses isolated polymerase domain (I1780-V2590) of DNA polymerase theta (Polθ) (Homo sapiens (Human), UniProt O75417). Description: biochemical.

As for `Cc1ccnc(Cn2c(-c3ccc(N4C[C@H]5C[C@@H]4CN5)cc3Cl)nc3c(OC4(C)CC4)ncnc32)c1` [Example T336, 8-(4-((1R,4R)-2,5-diazabicyclo[2.2.1]heptan-2-yl)-2-chlorophenyl)-6-(1-methylcyclopropoxy)-9-((4-methylpyridin-2-yl)methyl)-9H-purine], the negative-log IC50 (pIC50) was 8.10. `Cc1ccnc(Cn2c(-c3ccc(C(=O)N4CCNCC4)cc3Cl)nc3c(OC4(C)CC4)ncnc32)c1` [Example T337, (3-chloro-4-(6-(1-methylcyclopropoxy)-9-((4-methylpyridin-2-yl)methyl)-9H-purin-8-yl)phenyl)(piperazin-1-yl)methanone] gave a negative logarithm of the IC50 (pIC50) of 7.80. `Cc1ccnc(Cn2c(-c3ccc(N4CCNCCC4=O)cc3Cl)nc3c(OC4(C)CC4)ncnc32)c1` [Example T338, 4-(3-chloro-4-(6-(1-methylcyclopropoxy)-9-((4-methylpyridin-2-yl)methyl)-9H-purin-8-yl)phenyl)-1,4-diazepan-5-one] had a negative-log IC50 (pIC50) of 7.50. For `Cc1ccnc(Cn2c(-c3ccc(N4CCNC(=O)CC4)cc3Cl)nc3c(OC4(C)CC4)ncnc32)c1` [Example T339, 1-(3-chloro-4-(6-(1-methylcyclopropoxy)-9-((4-methylpyridin-2-yl)methyl)-9H-purin-8-yl)phenyl)-1,4-diazepan-5-one] the value was 8.20; for `Cc1ccnc(Cn2c(-c3ccc(N4CC[C@H](C(N)=O)C4)cc3Cl)nc3c(OC4(C)CC4)ncnc32)c1` [Example T340, (S)-1-(3-chloro-4-(6-(1-methylcyclopropoxy)-9-((4-methylpyridin-2-yl)methyl)-9H-purin-8-yl)phenyl)pyrrolidine-3-carboxamide], 8.10.

In the case of `CNC(=O)C1CN(c2ccc(-c3nc4c(OC5(C)CC5)ncnc4n3Cc3cc(C)ccn3)c(Cl)c2)C1` [Example T341, 1-(3-chloro-4-(6-(1-methylcyclopropoxy)-9-((4-methylpyridin-2-yl)methyl)-9H-purin-8-yl)phenyl)-N-methylazetidine-3-carboxamide], the pIC50 is 8.20. On to `Cc1ccnc(Cn2c(-c3ccc(NC(=O)N4CC[C@@H](O)C4)cc3Cl)nc3c(OC4(C)CC4)ncnc32)c1` [Example T342, (R)-N-(3-chloro-4-(6-(1-methylcyclopropoxy)-9-((4-methylpyridin-2-yl)methyl)-9H-purin-8-yl)phenyl)-3-hydroxypyrrolidine-1-carboxamide], for which the negative logarithm of the IC50 (pIC50) was 8.10. For `CNC(=O)N1CC(Oc2ccc(-c3nc4c(OC5(C)CC5)ncnc4n3Cc3cc(C)ccn3)c(Cl)c2)C1` [Example T343, 3-(3-chloro-4-(6-(1-methylcyclopropoxy)-9-((4-methylpyridin-2-yl)methyl)-9H-purin-8-yl)phenoxy)-N-methylazetidine-1-carboxamide], the negative-log IC50 (pIC50) is 8.10. As for `Cc1ccnc(Cn2c(-c3ccc(O[C@@H]4CCN(C(N)=O)C4)cc3Cl)nc3c(OC4(C)CC4)ncnc32)c1` [Example T344, (R)-3-(3-chloro-4-(6-(1-methylcyclopropoxy)-9-((4-methylpyridin-2-yl)methyl)-9H-purin-8-yl)phenoxy)pyrrolidine-1-carboxamide], the pIC50 is 7.90. As for `CC1(Oc2ncnc3c2nc(-c2ccc(OCCN4CCNCC4)cc2Cl)n3Cc2nccc(Cl)c2F)CC1` [Example T345, 9-((4-chloro-3-fluoropyridin-2-yl)methyl)-8-(2-chloro-4-(2-(piperazin-1-yl)ethoxy)phenyl)-6-(1-methylcyclopropoxy)-9H-purine], the negative-log IC50 (pIC50) was 7.90. Consider `CC1(Oc2ncnc3c2nc(-c2ccc(OCCN4CCNCC4)cc2Cl)n3Cc2cc(Cl)c(F)cn2)CC1` [Example T346, 8-(2-chloro-4-(2-(piperazin-1-yl)ethoxy)phenyl)-9-((4-chloro-5-fluoropyridin-2-yl)methyl)-6-(1-methylcyclopropoxy)-9H-purine], for which the pIC50 was 8.20. The compound `CC1(Oc2ncnc3c2nc(-c2ccc(OCCCN4CC(O)C4)cc2Cl)n3Cc2cc(Cl)ccn2)CC1` [Example T347, 1-(3-(3-chloro-4-(9-((4-chloropyridin-2-yl)methyl)-6-(1-methylcyclopropoxy)-9H-purin-8-yl)phenoxy)propyl)azetidin-3-ol] gave a pIC50 of 8.60. Consider `CC1(Oc2ncnc3c2nc(-c2ccc(OCCN4CCNCC4)cc2Br)n3Cc2cc(Cl)ccn2)CC1` [Example T348, 8-(2-bromo-4-(2-(piperazin-1-yl)ethoxy)phenyl)-9-((4-chloropyridin-2-yl)methyl)-6-(1-methylcyclopropoxy)-9H-purine], for which the pIC50 was 8.30. Compared with the last compound, the pIC50 is 0.30 log units lower. In the case of `CC1(Oc2ncnc3c2nc(-c2ccc(OCCN4CCNCC4)cc2F)n3Cc2cc(Cl)ccn2)CC1` [Example T349, 9-((4-chloropyridin-2-yl)methyl)-8-(2-fluoro-4-(2-(piperazin-1-yl)ethoxy)phenyl)-6-(1-methylcyclopropoxy)-9H-purine], the negative logarithm of the IC50 (pIC50) is 7.90. For `CC1(Oc2ncnc3c2nc(-c2ccc(OCCN4CCNCC4)cc2Cl)n3Cc2ccc(F)cn2)CC1` [Example T350, 8-(2-chloro-4-(2-(piperazin-1-yl)ethoxy)phenyl)-9-((5-fluoropyridin-2-yl)methyl)-6-(1-methylcyclopropoxy)-9H-purine], the negative logarithm of the IC50 (pIC50) was 7.80. Take `CC1(Oc2ncnc3c2nc(-c2ccc(OCCN4CCNCC4)cc2Cl)n3Cc2ncccc2F)CC1` [Example T351, 8-(2-chloro-4-(2-(piperazin-1-yl)ethoxy)phenyl)-9-((3-fluoropyridin-2-yl)methyl)-6-(1-methylcyclopropoxy)-9H-purine]: the pIC50 was 7.70. Regarding `CN(C)CCCOc1ccc(-c2nc3c(OC4(C)CC4)ncnc3n2Cc2cc(C(F)F)ccn2)c(Cl)c1` [Example T352, 3-(3-chloro-4-(9-((4-(difluoromethyl)pyridin-2-yl)methyl)-6-(1-methylcyclopropoxy)-9H-purin-8-yl)phenoxy)-N,N-dimethylpropan-1-amine], the pIC50 was 8.20.

Compound `Cc1ccnc(Cn2c(-c3ccc(CN4CC[C@@H](O)C4)cc3Cl)nc3c(OC4(C)CC4)ncnc32)c1` [Example T353, (R)-1-(3-chloro-4-(6-(1-methylcyclopropoxy)-9-((4-methylpyridin-2-yl)methyl)-9H-purin-8-yl)benzyl)pyrrolidin-3-ol] showed a pIC50 of 8.30.

Compound `Cc1ccnc(Cn2c(-c3ccc(OC4CCNCC4)cc3Cl)nc3c(OC4(C)CC4)ncnc32)c1` [Example T354, 8-(2-chloro-4-(piperidin-4-yloxy)phenyl)-6-(1-methylcyclopropoxy)-9-((4-methylpyridin-2-yl)methyl)-9H-purine] had a pIC50 of 8.30. The compound `Cc1ccnc(Cn2c(-c3ccc(CCN4CC(O)C4)cc3Cl)nc3c(OC4(C)CC4)ncnc32)c1` [Example T355, 1-(3-chloro-4-(6-(1-methylcyclopropoxy)-9-((4-methylpyridin-2-yl)methyl)-9H-purin-8-yl)phenethyl)azetidin-3-ol] showed a pIC50 of 8.20. On to `Cc1ccnc(Cn2c(-c3ccc(OC[C@H]4CCCN4)cc3Cl)nc3c(OC4(C)CC4)ncnc32)c1` [Example T356, (R)-8-(2-chloro-4-(pyrrolidin-2-ylmethoxy)phenyl)-6-(1-methylcyclopropoxy)-9-((4-methylpyridin-2-yl)methyl)-9H-purine], for which the pIC50 was 8.40. `Cc1ccnc(Cn2c(-c3ccc(CC(=O)NC(C)C)cc3Cl)nc3c(OC4(C)CC4)ncnc32)c1` [Example T357, 2-(3-chloro-4-(6-(1-methylcyclopropoxy)-9-((4-methylpyridin-2-yl)methyl)-9H-purin-8-yl)phenyl)-N-isopropylacetamide] gave a pIC50 of 8.10. As to `Cc1ccnc(Cn2c(-c3ccc(CCC(=O)N(C)C)cc3Cl)nc3c(OC4(C)CC4)ncnc32)c1` [Example T358, 3-(3-chloro-4-(6-(1-methylcyclopropoxy)-9-((4-methylpyridin-2-yl)methyl)-9H-purin-8-yl)phenyl)-N,N-dimethylpropanamide], the pIC50 is 8.20.

The compound `Cc1cnc(Cn2c(-c3ccc(OC4CC5(C4)CN(C)C5)cc3Cl)nc3c(OC4(C)CC4)ncnc32)s1` [Example T359, 2-((8-(2-chloro-4-((2-methyl-2-azaspiro[3.3]heptan-6-yl)oxy)phenyl)-6-(1-methylcyclopropoxy)-9H-purin-9-yl)methyl)-5-methylthiazole] gave a pIC50 of 8.50.

On to `Cc1ccnc(Cn2c(-c3cccc(OCCN4CC(O)C4)c3Cl)nc3c(OC4(C)CC4)ncnc32)c1` [Example T360, 1-(2-(2-chloro-3-(6-(1-methylcyclopropoxy)-9-((4-methylpyridin-2-yl)methyl)-9H-purin-8-yl)phenoxy)ethyl)azetidin-3-ol], for which the pIC50 is 8.10. For `CC[C@H](CO)NC(=O)c1ccc(-c2nc3c(OC4(C)CC4)ncnc3n2Cc2cc(C)ccn2)c(Cl)c1` [Example T361, (R)-3-chloro-N-(1-hydroxybutan-2-yl)-4-(6-(1-methylcyclopropoxy)-9-((4-methylpyridin-2-yl)methyl)-9H-purin-8-yl)benzamide] the value was 7.90; for `Cc1ccnc(Cn2c(-c3ccc(C(=O)NC(C)(C)CO)cc3Cl)nc3c(OC4(C)CC4)ncnc32)c1` [Example T362, 3-chloro-N-(1-hydroxy-2-methylpropan-2-yl)-4-(6-(1-methylcyclopropoxy)-9-((4-methylpyridin-2-yl)methyl)-9H-purin-8-yl)benzamide], 7.90.

Take `Cc1ccnc(Cn2c(-c3ccc(C(=O)NCC(C)(C)O)cc3Cl)nc3c(OC4(C)CC4)ncnc32)c1` [Example T363, 3-chloro-N-(2-hydroxy-2-methylpropyl)-4-(6-(1-methylcyclopropoxy)-9-((4-methylpyridin-2-yl)methyl)-9H-purin-8-yl)benzamide]: the pIC50 is 7.90. In turn, `Cc1ccnc(Cn2c(-c3ccc(C(=O)N[C@H](C)CCO)cc3Cl)nc3c(OC4(C)CC4)ncnc32)c1` [Example T364, (R)-3-chloro-N-(4-hydroxybutan-2-yl)-4-(6-(1-methylcyclopropoxy)-9-((4-methylpyridin-2-yl)methyl)-9H-purin-8-yl)benzamide] gave a pIC50 of 7.80. For `CC[C@@H](O)CNC(=O)c1ccc(-c2nc3c(OC4(C)CC4)ncnc3n2Cc2cc(C)ccn2)c(Cl)c1` [Example T365, (R)-3-chloro-N-(2-hydroxybutyl)-4-(6-(1-methylcyclopropoxy)-9-((4-methylpyridin-2-yl)methyl)-9H-purin-8-yl)benzamide], the pIC50 is 8.00.

(Values after patent publication US20250195530A1, “POLQ INHIBITORS” (ASTRAZENECA AB, priority 2022, published 2025).)
